Source: patent publication US9453017B2, “Antiviral therapies with phospholipase D inhibitors” (Vanderbilt University, priority 2011, dated 2016)

Target: PLD2 (Homo sapiens (Human), UniProt O14939)
Settings: read-out: PLD2** (IC50); In vitro enzyme assay

Question: Which IC50 does the source give for O=C(NCCN1CCC2(CC1)C(=O)NCN2c1cccc(F)c1)c1ccc2ccccc2c1 [No. 1, N-(2-(1-(3-fluorophenyl)-4-oxo-1,3,8-triazaspiro[4.5]decan-8-yl)ethyl)-2-naphthamide] here?
Answer: Its IC50 is 100 nM.
